The test system of the data set is metastatic 4T1 cancer. To be noted: mouse, in vivo, iv. An excerpt: This step should be repeated until no radioactivity is detected in the supernatant.

For the substance ^18F fluorodeoxyglucose [^18F-FDG], the PET signal entry is “lower PET signal”.

For the origin of these results see patent publication US20220280663A1, “CELLULAR TARGETED PHARMACEUTICALLY ACTIVE SUBSTANCE OR LABEL DELIVERY SYSTEM” (CELLIS AG, priority 2016, published 2022).
